Apparent affinities of Ab-14 variants for a coronavirus HR2 peptide

Binding partner: SARS-CoV-2 spike HR2 peptide, sequence PDVDLGDISGINAS.

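Library AAYL49 holds single substitutions and randomly drawn double and triple substitutions in the CDRs. In AlphaSeq, yeast of one mating type display the scFv and yeast of the other type display the target. Binding brings cells together so that they mate, and sequencing counts the barcode pairs among the diploids. Read counts were normalised to the haploid input and turned into Kd by a linear fit to BCL2-family pairs of known affinity, for each replicate. There are three technical replicates.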

Each scFv is VH, a (GGGGS)3 linker, VL, as in the parent Ab-14, and differs from it in the CDRs of the heavy chain only.
VH: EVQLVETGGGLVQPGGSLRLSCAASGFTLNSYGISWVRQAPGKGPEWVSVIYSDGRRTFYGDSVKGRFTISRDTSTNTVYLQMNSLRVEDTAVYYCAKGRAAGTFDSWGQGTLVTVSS
VL: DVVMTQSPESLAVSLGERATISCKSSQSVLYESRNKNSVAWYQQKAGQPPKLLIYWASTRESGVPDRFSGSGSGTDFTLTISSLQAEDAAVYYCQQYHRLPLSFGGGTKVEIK

The parent's heavy chain CDRs are GFTLNSYGIS, VIYSDGRRTFYGDSVK, GRAAGTFDS; each variant's own CDRs replace them letter for letter.
Numbers give log10(Kd / nM), so 0 is 1 nM and 3 is 1 µM. Smaller is tighter.
Averages over replicates are reported, and they cover detected replicates only.
Where no diploid with the target was found in that replicate, the entry reads "nd": below detection, most likely a poor binder, though not proof of it.
Nonspecific signal, from three strains lacking the peptide, appeared in 15% of pairings of library AAYL49, centred on 4.06 (5% of these signals below 2.83); values are not corrected for it. Also given: how often the same scFv was detected with the empty control strains, with their mean in brackets.
For reference, the parent read 0.65 as the reference entry and 4.11 (one replicate of three) as a member of this library.

{"CDR-H1": "GFTLNSYGIS", "CDR-H2": "VIYSGGRRTFYKDSVK", "CDR-H3": "GMAAGTFDS", "replicates, log10 nM": "nd / nd / nd", "mean, log10 nM": "nd", "empty controls": "0 of 9"}
{"CDR-H1": "GFTLNSYGIS", "CDR-H2": "VIYSTGDRTFYGDSVK", "CDR-H3": "GRAAGTFDS", "replicates, log10 nM": "nd / nd / nd", "mean, log10 nM": "nd", "empty controls": "0 of 9"}
{"CDR-H1": "GFTLNMYGIE", "CDR-H2": "VIYSDGRRTFYGDSVK", "CDR-H3": "GRAAGTFWS", "replicates, log10 nM": "nd / nd / 4.60", "mean, log10 nM": "4.60", "empty controls": "2 of 9 (3.64)"}
{"CDR-H1": "GFFLNSYGIS", "CDR-H2": "VIYSDGRRTFWGDSVK", "CDR-H3": "GRAAGTFMS", "replicates, log10 nM": "nd / nd / 4.06", "mean, log10 nM": "4.06", "empty controls": "2 of 9 (3.14)"}
{"CDR-H1": "GFTLNSYGIS", "CDR-H2": "VIQSDGRRTFYGDSVK", "CDR-H3": "QRKAGTFDS", "replicates, log10 nM": "nd / nd / nd", "mean, log10 nM": "nd", "empty controls": "0 of 9"}
{"CDR-H1": "QFTLTSYGIS", "CDR-H2": "VIYSDGRRTFYGDSVK", "CDR-H3": "GRATGTFDS", "replicates, log10 nM": "nd / nd / nd", "mean, log10 nM": "nd", "empty controls": "0 of 9"}
{"CDR-H1": "GFTLNSYGDS", "CDR-H2": "YIYSDGRRTFYGDSVV", "CDR-H3": "GRAAGTFDS", "replicates, log10 nM": "4.80 / 5.11 / nd", "mean, log10 nM": "4.95", "empty controls": "6 of 9 (4.37)"}
{"CDR-H1": "GFTLNSYYIW", "CDR-H2": "VIISDGRRTFYGDSVK", "CDR-H3": "GRAAGTFDS", "replicates, log10 nM": "3.87 / nd / nd", "mean, log10 nM": "3.87", "empty controls": "0 of 9"}
{"CDR-H1": "GFNLNSYGIS", "CDR-H2": "LIYSDGRRTFYGDSVK", "CDR-H3": "GRAAGWFDS", "replicates, log10 nM": "nd / nd / nd", "mean, log10 nM": "nd", "empty controls": "0 of 9"}
{"CDR-H1": "GFTLNSYFIS", "CDR-H2": "VIYSDGRKTFYGDSVK", "CDR-H3": "GRTAGTFDS", "replicates, log10 nM": "nd / nd / 3.93", "mean, log10 nM": "3.93", "empty controls": "3 of 9 (4.38)"}
{"CDR-H1": "GFRLNSYGIS", "CDR-H2": "VIYSDGRRTFLGDSVK", "CDR-H3": "GRAAWTFDS", "replicates, log10 nM": "nd / nd / nd", "mean, log10 nM": "nd", "empty controls": "0 of 9"}
{"CDR-H1": "GFTLNSPGAS", "CDR-H2": "VIYSDGRRTFYGDSVK", "CDR-H3": "GAAAGTFDS", "replicates, log10 nM": "nd / nd / nd", "mean, log10 nM": "nd", "empty controls": "0 of 9"}
{"CDR-H1": "GFTLNSYGIS", "CDR-H2": "VIGSDNRRTFYGDAVK", "CDR-H3": "GRAAGTFDS", "replicates, log10 nM": "nd / nd / 5.82", "mean, log10 nM": "5.82", "empty controls": "3 of 9 (4.76)"}
{"CDR-H1": "GFTLNSVGIS", "CDR-H2": "VIYPDGRRTFIGDSVK", "CDR-H3": "GRAAGTFDS", "replicates, log10 nM": "nd / nd / 4.55", "mean, log10 nM": "4.55", "empty controls": "0 of 9"}
{"CDR-H1": "GDTLNSYGIS", "CDR-H2": "VIYSDGRRTFNGDSVK", "CDR-H3": "FRAAGTFDS", "replicates, log10 nM": "nd / nd / nd", "mean, log10 nM": "nd", "empty controls": "0 of 9"}
{"CDR-H1": "GFWLNSYGIS", "CDR-H2": "VIYSGGRRTFYGDSVK", "CDR-H3": "GLAAGTFDS", "replicates, log10 nM": "nd / nd / nd", "mean, log10 nM": "nd", "empty controls": "0 of 9"}
{"CDR-H1": "GFTLNSYGIS", "CDR-H2": "KIYSDGRRKFYGDSVK", "CDR-H3": "GRAAGTFDS", "replicates, log10 nM": "nd / nd / nd", "mean, log10 nM": "nd", "empty controls": "0 of 9"}
{"CDR-H1": "GFTLNSYGWS", "CDR-H2": "VIYSDGRRTFYGDDVA", "CDR-H3": "GRAAGTFDS", "replicates, log10 nM": "nd / nd / nd", "mean, log10 nM": "nd", "empty controls": "1 of 9 (3.43)"}
{"CDR-H1": "GFTLNSYGIS", "CDR-H2": "VIYSDGRRTYPGDSVK", "CDR-H3": "GRSAGTFDS", "replicates, log10 nM": "nd / 3.79 / 6.04", "mean, log10 nM": "4.92", "empty controls": "3 of 9 (4.17)"}
{"CDR-H1": "GFTLNSYGIS", "CDR-H2": "VIYSDLRRTFYGDSVK", "CDR-H3": "GGNAGTFDS", "replicates, log10 nM": "nd / nd / nd", "mean, log10 nM": "nd", "empty controls": "0 of 9"}
{"CDR-H1": "GFCLTSYGIS", "CDR-H2": "VIYSDGHRTFYGDSVK", "CDR-H3": "GRAAGTFDS", "replicates, log10 nM": "1.74 / 1.80 / 1.80", "mean, log10 nM": "1.78", "empty controls": "0 of 9"}
{"CDR-H1": "GFTLNSYGIS", "CDR-H2": "VIYLDGCRTFYGDSVK", "CDR-H3": "GRAAGYFDS", "replicates, log10 nM": "nd / nd / nd", "mean, log10 nM": "nd", "empty controls": "1 of 9 (3.48)"}
{"CDR-H1": "GFTLNSYGIS", "CDR-H2": "VIYKDFRRTFYGDSVK", "CDR-H3": "GQAAGTFDS", "replicates, log10 nM": "4.82 / nd / nd", "mean, log10 nM": "4.82", "empty controls": "4 of 9 (4.38)"}
{"CDR-H1": "GFTLNSYGIS", "CDR-H2": "VIYSMGRREFYGDSVK", "CDR-H3": "WRAAGTFDS", "replicates, log10 nM": "nd / 3.69 / 3.97", "mean, log10 nM": "3.83", "empty controls": "2 of 9 (4.75)"}
{"CDR-H1": "GFTLNSYGIS", "CDR-H2": "VIYSPGRRTFYGDSVK", "CDR-H3": "GRAAGTFDS", "replicates, log10 nM": "4.79 / 5.70 / 4.74", "mean, log10 nM": "5.07", "empty controls": "8 of 9 (4.76)"}
{"CDR-H1": "GFTLNSYGIH", "CDR-H2": "VIYSDMRRTFYGDSVK", "CDR-H3": "HRAAGTFDS", "replicates, log10 nM": "nd / nd / nd", "mean, log10 nM": "nd", "empty controls": "0 of 9"}
{"CDR-H1": "GFTPNSYGIS", "CDR-H2": "VIYSRGRRSFYGDSVK", "CDR-H3": "GRAAGTFDS", "replicates, log10 nM": "nd / nd / nd", "mean, log10 nM": "nd", "empty controls": "1 of 9 (3.36)"}
{"CDR-H1": "GFTLNSGGIS", "CDR-H2": "VIYSDGRRTWYGDSVK", "CDR-H3": "GRAYGTFDS", "replicates, log10 nM": "nd / nd / nd", "mean, log10 nM": "nd", "empty controls": "0 of 9"}
{"CDR-H1": "GFTLTSYGIS", "CDR-H2": "EIYSDGRRTFYGDSVK", "CDR-H3": "GRAAGVFDS", "replicates, log10 nM": "nd / nd / nd", "mean, log10 nM": "nd", "empty controls": "2 of 9 (3.47)"}
{"CDR-H1": "GPTLNSYGIS", "CDR-H2": "VIYFDGRRTFYGMSVK", "CDR-H3": "GRAAGTFDS", "replicates, log10 nM": "nd / nd / nd", "mean, log10 nM": "nd", "empty controls": "1 of 9 (4.16)"}
{"CDR-H1": "GFDLNSYGIS", "CDR-H2": "VIYSDGRRTFYGDSVK", "CDR-H3": "GRAAGWFNS", "replicates, log10 nM": "-0.15 / 0.00 / -0.26", "mean, log10 nM": "-0.14", "empty controls": "3 of 9 (4.53)"}

Repeated from above, the 3 best binders with a signal in all replicates:

CDR-H1	CDR-H2	CDR-H3	replicates, log10 nM	mean, log10 nM	empty controls
GFDLNSYGIS	VIYSDGRRTFYGDSVK	GRAAGWFNS	-0.15 / 0.00 / -0.26	-0.14	3 of 9 (4.53)
GFCLTSYGIS	VIYSDGHRTFYGDSVK	GRAAGTFDS	1.74 / 1.80 / 1.80	1.78	0 of 9
GFTLNSYGIS	VIYSPGRRTFYGDSVK	GRAAGTFDS	4.79 / 5.70 / 4.74	5.07	8 of 9 (4.76)

Reference: Engelhart et al. 2022, doi:10.1038/s41597-022-01779-4. File: FLAb, binding data.